From patent publication US7576222B2, “Alkynyl-containing tryptophan derivative inhibitors of TACE/matrix metalloproteinase” (priority 2004, dated 2009)

Target: T1, recombinant human catalytic domain of MMP-13 (Homo sapiens, UniProt P45452)
T1 construct: catalytic domain of MMP-13 (165 amino acids, residues 104-268, 19 kDa)
Experiment: biochemical
Conditions: read-out: MMP-13 Inhibition

SMILES: CC#CCOc1ccc(S(=O)(=O)NC(Cc2cn(Cc3ccc(OC)cc3)c3ccc(C)cc23)C(=O)O)cc1 (stereo not shown) [Example 47, N-{[4-(but-2-ynyloxy)phenyl]sulfonyl}-1-(4-methoxybenzyl)-5-methyltryptophan]
- inhibition at 3 µM: 50%
